The list shows a part of the results, in another mix than the full data. Calls of active or inactive are those of the source. Rule as the data show it: active = inhibition above about 30%; inactive = the rest.
Test: growth suppression of yeast trafficking mutant, preliminary HTS, modulators of trafficking downstream of Golgi apparatus project, 1536-format plate, OD 615 nm (AID 637)
Details: yeast transport mutant growth, absorbance 615 nm, 18 h; stronger effect = higher value

| Compound | inhibition |
| --- | --- |
| Fc1ccccc1NC1CCN(Cc2ccccc2)CC1 | inactive: 1.15% |

Source: PubChem BioAssay AID637 (SRMLSC, 2007)
